Experimental data: patent publication US6022307A, “Substituted dibenzothiophenes having antiangiogenic activity” (American Cyanamid Company, priority 1999, dated 2000)
Structures can show the parent of a compound that is named as a salt. Where two headings read alike, the source gives them in different places.

Key:
BAE cells = experiment: Inhibition of binding of 125I-VEGF 165 to BAE cells; type: cell-based, bovine; conditions: Bos taurus; inhibition of 125I-VEGF 165 binding to BAE cells; read-out: Cell Assay VEGF 165 IC50 BAE
Flt-1 = Flt-1 (Homo sapiens, UniProt P17948); experiment: Inhibition of Binding of VEGF 165 to Flt-1 Receptor as Measured by SPA Assay; conditions: inhibition of 125I-VEGF 165 binding to soluble Flt-1-Fc
HUVEC cells = experiment: Inhibition of binding of 125I-VEGF 165 to HUVEC cells; type: cell-based; conditions: Homo sapiens; inhibition of 125I-VEGF 165 binding to HUVEC cells; read-out: Cell Assay VEGF 165 IC50 HUVEC
[1] = read-out: SPA Assay Flt-1 IC50 VEGF 165 (converted)

Row | Structure (SMILES) | IC50 (BAE cells) [µg/mL] | IC50 (Flt-1; [1]) [µM] | IC50 (Flt-1; read-out: SPA Assay Flt-1 IC50 VEGF 165) [µM] | IC50 (HUVEC cells) [µg/mL]
1 | CCOP(=O)(O)c1cc2c(cc1NC(=O)c1cc3ccccc3s1)S(=O)(=O)c1cc(NC(=O)c3cc4ccccc4s3)c(P(=O)(O)OCC)cc1-2 [Example 23a, [3,7-Bis[(benzo[b]thiophene-2-carbonyl)amino-8-(ethoxyhydroxyphosphoryl)-5,5-dioxo-5H-5λ^6-dibenzothiophen-2-yl]phosphonic acid monoethyl ester, disodium salt] | 0.67 | – | 2.59 | –
2 | COc1ccc(/C=C/C(=O)Nc2cc3c(cc2S(=O)(=O)O)-c2cc(S(=O)(=O)O)c(NC(=O)/C=C/c4ccc(OC)cc4)cc2S3(=O)=O)cc1 [Example 30, 3,7-Bis-[3-(4-methoxyphenyl)-acryloylamino]-5,5-dioxo-5H-5^6-dibenzothiophene-2,8-disulfonic acid, disodium salt] | 0.6 | 1.72 | – | 1.2
3 | O=C(Nc1cc2c(cc1S(=O)(=O)O)-c1cc(S(=O)(=O)O)c(NC(=O)c3cc4sccc4s3)cc1S2(=O)=O)c1cc2sccc2s1 [Example 43, 5,5-Dioxo-3,7-bis-[(thieno[3,2-b]thiophene-2-carbonyl)-amino]-5H-5^6-dibenzothiophene-2,8-disulfonic acid, disodium] | 0.35 | 1.35 | – | –
4 | Cc1nn(C)c2sc(C(=O)Nc3cc4c(cc3S(=O)(=O)O)-c3cc(S(=O)(=O)O)c(NC(=O)c5cc6c(C)nn(C)c6s5)cc3S4(=O)=O)cc12 [Example 44, 3,7-Bis-[(1,3-di-methyl-1H-thieno[2,3-c]pyrazole-5-carbonyl)amino]-5,5-dioxo-5H-5^6-dibenzothiophene-2,8-disulfonic acid, disodium salt] | 0.68 | 3.93 | – | –
5 | CCCc1c(C(=O)Nc2cc3c(cc2S(=O)(=O)O)-c2cc(S(=O)(=O)O)c(NC(=O)c4cnn(-c5ccc(Cl)cc5)c4CCC)cc2S3(=O)=O)cnn1-c1ccc(Cl)cc1 [Example 45, 3,7-Bis-{[1-(4-chlorophenyl)-5-propyl-1H-pyrazole-4-carbonyl]amino}5,5-dioxo-5H-5^6-dibenzothiophene-2,8-disulfonic acid, disodium salt] | 1.6 | – | – | –
6 | COc1ccc2cc(C(=O)Nc3cc4c(cc3S(=O)(=O)O)-c3cc(S(=O)(=O)O)c(NC(=O)c5cc6ccc(OC)cc6oc5=O)cc3S4(=O)=O)c(=O)oc2c1 [Example 47, 3,7-Bis-[(7-methoxy-2-oxo-benzopyran-3-yl)-carbonylamino]-5,5-dioxo-5H-5^6-dibenzothiophene-2,8-disulfonic acid, disodium salt] | 0.6 | – | – | –
7 | COc1ccc(C(=O)Nc2cc3c(cc2S(=O)(=O)O)-c2cc(S(=O)(=O)O)c(NC(=O)c4ccc(OC)cc4OC)cc2S3(=O)=O)c(OC)c1 [Example 51, 3,7-Bis-(2,4-dimethoxybenzoyl-amino)-5,5-dioxo-5H-5^6-dibenzothiophene-2,8-disulfonic acid disodium salt] | 1.4 | – | – | –
8 | CCOc1cc2ccccc2cc1C(=O)Nc1cc2c(cc1S(=O)(=O)O)-c1cc(S(=O)(=O)O)c(NC(=O)c3cc4ccccc4cc3OCC)cc1S2(=O)=O [Example 53, 3,7-Bis-(3-ethoxy-naphthalen-2-ylcarbonylamino)-5,5-dioxo-5H-5^6-dibenzothiophene-2,8-disulfonic acid, disodium salt] | 10 | – | – | –
9 | COc1cc(NC(C)=O)ccc1C(=O)Nc1cc2c(cc1S(=O)(=O)O)-c1cc(S(=O)(=O)O)c(NC(=O)c3ccc(NC(C)=O)cc3OC)cc1S2(=O)=O [Example 59, 3,7-Bis-[(4-acetylamino-2-methoxy-phenyl)carbonylamino]-5,5-dioxo-5H-5^6-dibenzothiophene-2,8-disulfonic acid, disodium salt] | 0.88 | – | – | –
10 | O=C(Nc1ccc(C(=O)Nc2cc3c(cc2S(=O)(=O)O)-c2cc(S(=O)(=O)O)c(NC(=O)c4ccc(NC(=O)c5ccccc5)cc4)cc2S3(=O)=O)cc1)c1ccccc1 [Example 60, 3,7-Bis-(4-benzoylaminobenzoylamino)-5,5-dioxo-5H-5^6-dibenzothiophene-2,8-disulfonic acid, disodium salt] | 0.2 | – | – | –
11 | COc1ccc(C=CC(=O)Nc2cc3sc4cc(NC(=O)C=Cc5ccc(OC)c(OC)c5Cl)c(C(=O)[O-])cc4c3cc2C(=O)[O-])c(Cl)c1OC.[Na+].[Na+] [disodium salt] | – | 6.28 | – | –

Further lines, with some results ahead:

Row | IC50 (BAE cells) [µg/mL] | IC50 (Flt-1; [1]) [µM] | Structure (SMILES) | IC50 (Flt-1; read-out: SPA Assay Flt-1 IC50 VEGF 165) [µM] | IC50 (HUVEC cells) [µg/mL]
12 | 2.5 | 0.642 | O=C(Nc1cc2sc3cc(NC(=O)c4cc5ccccc5s4)c(C(=O)O)cc3c2cc1C(=O)O)c1cc2ccccc2s1 [Example 2, 3,7-Bis-r(benzo[b]thiophene-2-carbonyl)amino]dibenzothiophene-2,8-dicarboxylic acid, disodium salt] | – | –
13 | 0.37 | 1.75 | COc1ccc(/C=C/C(=O)Nc2cc3c(cc2S(=O)(=O)O)-c2cc(S(=O)(=O)O)c(NC(=O)/C=C/c4ccc(OC)c(OC)c4Cl)cc2S3(=O)=O)c(Cl)c1OC [Example 27, 3,7-Bis[3-(2-chloro-3,4-di-methoxyphenyl)-acryloylamino]-5,5-dioxo-5H-5^6-dibenzothiophene-2,8-disulfonic acid, disodium salt] | – | –
14 | 0.088 | 1.38 | Cc1ccc(C)c(/C=C/C(=O)Nc2cc3c(cc2S(=O)(=O)O)-c2cc(S(=O)(=O)O)c(NC(=O)/C=C/c4cc(C)ccc4C)cc2S3(=O)=O)c1 [Example 35, 3,7-Bis-[3-(2,5-dimethylphenyl)-acryloylamino]-5,5-dioxo-5H-5^6-dibenzothiophene-2,8-disulfonic acid, disodium] | – | –
15 | 0.5 | – | O=C(Nc1cc2c(cc1S(=O)(=O)O)-c1cc(S(=O)(=O)O)c(NC(=O)c3cc4ccccc4o3)cc1S2(=O)=O)c1cc2ccccc2o1 [Example 42, 3,7-Bis[(benzo[b]furan-2-carbonyl)amino]-5,5-dioxo-5H-5^6-dibenzothiophene-2,8-disulfonic acid, disodium salt] | – | –
16 | 0.74 | – | COc1ccc(C(=O)Nc2cc3c(cc2S(=O)(=O)O)-c2cc(S(=O)(=O)O)c(NC(=O)c4ccc(OC)cc4)cc2S3(=O)=O)cc1 [Example 50, 3,7-Bis-(4-methoxybenzoyl-amino)-5,5-dioxo-5H-5^6-dibenzothiophene-2,8-disulfonic acid, disodium salt] | – | –
17 | 2 | – | O=C(Nc1cc2c(cc1S(=O)(=O)O)-c1cc(S(=O)(=O)O)c(NC(=O)c3ccc(S(=O)(=O)c4ccccc4)cc3)cc1S2(=O)=O)c1ccc(S(=O)(=O)c2ccccc2)cc1 [Example 52, 5,5-Dioxo-3,7-bis-(4-phenyl-sulfonylbenzoyl-amino)-5H-5^6-dibenzothiophene-2,8-disulfonic acid, disodium salt] | – | –
18 | 0.1 | 0.184 | O=C(Nc1cc2c(cc1S(=O)(=O)O)-c1cc(S(=O)(=O)O)c(NC(=O)c3ccc4cc5ccccc5cc4c3)cc1S2(=O)=O)c1ccc2cc3ccccc3cc2c1 [Example 54, 3,7-Bis-(anthracen-2-ylcarbonylamino)-5,5-dioxo-5H-5^6-dibenzothiophene-2,8-disulfonic acid, disodium salt] | – | 0.18
19 | 0.8 | – | O=C(Nc1cc2c(cc1S(=O)(=O)O)-c1cc(S(=O)(=O)O)c(NC(=O)c3ccc4c(c3)C(=O)c3ccccc3C4=O)cc1S2(=O)=O)c1ccc2c(c1)C(=O)c1ccccc1C2=O [Example 55, 3,7-Bis-[9,10-dihydro-9,10-dioxoanthracen-2-yl)carbonyl-amino]-5,5-dioxo-5H-5^6-dibenzothiophene-2,8-disulfonic acid, disodium salt] | – | –
20 | 0.33 | – | O=C(Nc1cc2c(cc1S(=O)(=O)O)-c1cc(S(=O)(=O)O)c(NC(=O)c3ccc4ccccc4c3)cc1S2(=O)=O)c1ccc2ccccc2c1 [Example 57, 3,7-Bis-[(naphthalen-2-yl)carbonylamino]-5,5-dioxo-5H-5^6-dibenzothiophene-2,8-disulfonic acid, disodium salt] | – | –
21 | 1 | – | COc1ccc(C(=O)Nc2ccc(C(=O)Nc3cc4c(cc3S(=O)(=O)O)-c3cc(S(=O)(=O)O)c(NC(=O)c5ccc(NC(=O)c6ccc(OC)cc6OC)cc5OC)cc3S4(=O)=O)c(OC)c2)c(OC)c1 [Example 58, 3,7-Bis-({4-[(2,4-dimethoxy-phenyl)carbonyl-amino]-2-methoxy-phenyl}carbonyl-amino)-5,5-dioxo-5H-5^6-dibenzothiophene-2,8-disulfonic acid, disodium salt] | – | –
